Results reported in patent US7136698B2 (priority 1996, dated 2006).
Some compounds may have been tested in ways that are not shown here. Marks after values point to notes of the source that are not given here.

What was measured:
[1] = Pulsing frequency and fentanyl flux: transdermal electrotransport delivery with pulsed current; details: for Rate of Fentanyl Delivery, Without Bolus Treatment / Rate of Fentanyl Delivery, After Bolus Treatment: 31% duty cycle; for Rate of Fentanyl Delivery, After Bolus Treatment: after DC bolus 30 minutes at 0.1 mA/cm^2; for fentanyl flux (FIG. 7): 100 μA/cm^2, 31% duty cycle
[2] = Current density and increased efficiency: electrotransport fentanyl delivery with or without initial high current density boluses; details: bolus group versus 20 μA/cm^2 constant DC group
[3] = Current density and fentanyl flux: constant DC electrotransport delivery; details: for average transdermal fentanyl flux: 24 hours

## CCC(=O)N(c1ccccc1)C1CCN(CCc2ccccc2)CC1
[1]; 1 Hz, pulse width 310 msec
  Rate of Fentanyl Delivery, Without Bolus Treatment: 48** μg/hr
  Rate of Fentanyl Delivery, After Bolus Treatment: 48** μg/hr
[1]; 10 Hz, pulse width 31 msec
  Rate of Fentanyl Delivery, Without Bolus Treatment: 52** μg/hr
  Rate of Fentanyl Delivery, After Bolus Treatment: 52** μg/hr
[1]; 625 Hz, pulse width 0.5 msec
  Rate of Fentanyl Delivery, Without Bolus Treatment: 7 µg/h
  Rate of Fentanyl Delivery, After Bolus Treatment: 34 µg/h
[1]; pulsing frequencies 1 and 10 Hz
  fentanyl flux (FIG. 7): increased fentanyl flux
[1]; square-wave frequency 625 Hz
  fentanyl flux (FIG. 7): minimal fentanyl flux
[2]
  fentanyl transdermal delivery efficiency (FIG. 5, mean serum fentanyl concentration): higher efficiency fentanyl transdermal delivery
[3]; applied current density 10 μA/cm^2 (50 μA)
  average transdermal fentanyl flux: 19 µg/h
[3]; applied current density 20 μA/cm^2 (100 μA)
  average transdermal fentanyl flux: 73 µg/h
[3]; applied current density 40 μA/cm^2 (200 μA)
  average transdermal fentanyl flux: 173 µg/h
[3]; current increased four-fold from 50 μA to 200 μA
  increase in drug delivery rate: almost ten-fold increase
